Binding of CDR-mutated scFvs to a peptide of the spike HR2 region

Source: Li et al. 2023 (doi:10.1038/s41467-023-39022-2), MIT Lincoln Laboratory and A-Alpha Bio; data file from the FLAb repository.

All variants were tested on one target, the spike HR2 peptide PDVDLGDISGINAS (SARS-CoV-2).

The variants keep the light chain, the linker and the frameworks of Ab-14 (scFv order VH, a (GGGGS)3 linker, VL).
VH: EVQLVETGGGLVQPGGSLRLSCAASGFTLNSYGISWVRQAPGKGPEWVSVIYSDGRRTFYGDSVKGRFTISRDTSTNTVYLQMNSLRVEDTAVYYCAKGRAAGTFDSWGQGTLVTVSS
VL: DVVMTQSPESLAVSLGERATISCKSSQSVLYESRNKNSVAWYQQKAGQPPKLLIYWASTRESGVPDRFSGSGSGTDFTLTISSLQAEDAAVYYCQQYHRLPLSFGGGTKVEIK

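Phage display of a naive human antibody library on the peptide gave the parent. These sequences belong to a second round, designed from the earlier measurements on random variants of the parent. Their group label is 14H_Ctrl (Ctrl: baseline library sampled from a position-specific scoring matrix, with some repeated check sequences). The scFvs were displayed on barcoded MATa yeast, the peptide on MATalpha yeast. Binding brings cells together so that they mate, and sequencing counts the barcode pairs among the diploids. Read counts were normalised to the haploid input and turned into Kd by a linear fit to BCL2-family pairs of known affinity, for each replicate. There are six technical replicates.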

Changes read parent residue, position, new residue, counted from the first residue of the VH shown. The read-out is the apparent dissociation constant on a log10 scale (nM): the lower, the stronger. "nd" means that the variant was in the library but no mating with the target was seen in that replicate; the authors take this as a sign of poor binding, and no number exists. Empty control strains, which show no peptide, gave a signal in 1% of pairings with all heavy chain designs; the median was 2.08 and 95% of these signals were weaker than 0.84. No background was subtracted. For each scFv, signals with the empty controls are counted beside the result, with their mean in brackets. The range of this assay differs from that of the first round, and the authors advise against merging the two. The parent sequence was in this pool as ten entries: three were never detected, three once, and four in most replicates, with averages from 0.34 to 2.37. The authors averaged sequences with at least three values out of six and counted those with two or fewer as poor binders.

changes,"replicates, log10 nM",control signals
S31E+G99I+R100E+A102T,nd / nd / nd / nd / nd / nd,0 of 18
F27I+T28S,nd / 2.53 / 1.62 / 2.86 / nd / 2.89,1 of 18 (2.13)
G26L+S107L,nd / nd / 2.36 / nd / nd / 3.19,0 of 18
N30T+R100K+A101N,nd / 1.54 / nd / 2.04 / nd / nd,0 of 18
F27H+L29P+G61A,nd / nd / nd / nd / nd / nd,0 of 18
G26Q+G55W+G61Q+K65L+A102M+S107L,nd / nd / nd / nd / nd / nd,0 of 18
R100F+A101I,nd / 2.21 / 1.17 / 0.74 / 1.01 / 0.80,0 of 18
G61H+S107Q,nd / nd / 2.58 / nd / nd / 0.63,0 of 18
I34R+R100K+G103A+S107G,nd / nd / nd / nd / nd / nd,0 of 18
F27E+T28H+L29I+D62N,nd / 2.05 / nd / nd / nd / nd,1 of 18 (1.48)
G55V+F59W+A101P,nd / nd / nd / nd / nd / nd,0 of 18
R56S+G61H+R100E+F105Y,nd / nd / nd / nd / nd / nd,0 of 18
L29E+S31D+S53F,nd / nd / nd / nd / nd / nd,0 of 18
R56Q+K65R+S107T,nd / nd / nd / nd / 0.79 / nd,0 of 18
R56L+G103A,nd / nd / nd / nd / nd / nd,0 of 18
S53A+T58C+S63A+D106I,0.43 / 0.14 / 0.74 / 0.14 / 0.11 / 0.67,0 of 18
S31N+S63E,nd / nd / nd / nd / nd / nd,0 of 18
N30E+G61D+A101D+S107T,1.05 / 1.14 / 0.78 / 0.46 / 1.01 / 0.21,1 of 18 (1.75)
L29N+G99R,nd / 1.89 / 2.50 / nd / nd / nd,1 of 18 (2.08)
N30E+T58Q+A101W+G103L,nd / nd / nd / nd / nd / nd,0 of 18
T28D+K65R+A101L,0.44 / 1.32 / 0.66 / -0.29 / 0.54 / 0.19,0 of 18
N30E+G61E+A101C,nd / nd / nd / 2.40 / nd / 2.26,0 of 18
G61H+S63D+R100K+A101Q+T104A,nd / nd / nd / nd / nd / nd,1 of 18 (0.44)
S35Q+S53A+G61H+R100T,2.36 / 1.53 / 2.03 / 1.60 / 1.57 / 2.11,1 of 18 (2.51)
F59E,2.04 / 1.41 / 1.30 / 1.37 / 2.00 / 1.84,0 of 18
T28R+S35A+F59E+R100K+F105S,nd / nd / nd / nd / nd / nd,0 of 18
K65V,nd / nd / nd / 1.81 / 0.68 / nd,0 of 18
S31Y+S53A+G61H,-0.28 / -0.50 / -0.15 / -0.60 / -0.42 / 0.02,0 of 18
R100F+G103A+T104F,nd / nd / nd / nd / nd / nd,0 of 18
G61T+R100G+A102P+S107Y,0.97 / nd / nd / nd / 1.58 / nd,2 of 18 (1.25)
S31M+I34S,nd / nd / nd / nd / nd / nd,0 of 18
K65A,nd / nd / 0.96 / nd / nd / nd,0 of 18

Excerpt, the final 2 entries:

changes,"replicates, log10 nM",control signals
S31M+I34S,nd / nd / nd / nd / nd / nd,0 of 18
K65A,nd / nd / 0.96 / nd / nd / nd,0 of 18